Reference: PubChem BioAssay AID645 (SRMLSC, 2007)
The entries are a selection whose mix differs from that of the whole data set. Activity calls are given as the source filed them.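 How the source made its calls: active means HER2 level under 5% of the carrier-only control; inconclusive means no clear call, values can overlap the other calls; inactive means the rest.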

The molecules below were run against Receptor tyrosine-protein kinase erbB-2 (Homo sapiens) (UniProt P04626) (assay: inhibitors of Her2 protein expression, primary screen, SKBR-3 cells, AlphaScreen, 66K library (AID 645;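 further: 100% = DMSO carrier and 0% = 500 nM PU-H71 HSP90 inhibitor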)). Conditions: SKBR-3 HER2 protein level, 18-24 h, at 10 µM, stronger effect = lower value.
With `CCc1nc2c(n1)c1c(non1O)c1c2no[n+]1[O-]` the HER2 level % of control was active: -16.9%. `Cc1c2non([O-])c-2c(C)[n+](=O)[n+]1[O-]` was tested, and the HER2 level % of control was inactive: 63.3%. `O=P1(Nc2nc3ccc(Cl)cc3s2)COc2ccccc2O1` (stereo not given) was tested, and the HER2 level % of control was inactive: 82.5%. For `COC(=O)c1cc2c(s1)N=C(c1ccccc1)N(C)P2(=O)N1CCOCC1` (stereo not given), the HER2 level % of control was inactive: 97.8%. With `O=C(OC1CN2CCC1CC2)c1cccc(Cl)c1` (stereo not given) the HER2 level % of control was inactive: 104%. In the case of `c1nnnn1CCn1cnnn1`, the HER2 level % of control is reported as inactive: 96.5%. In the case of `O=P(Nc1nccs1)(c1ccccc1)c1ccccc1`, the HER2 level % of control is reported as inactive: 91.6%. For `Clc1n[nH]nc1-c1nn[nH][15n]1`, the HER2 level % of control was inactive: 119%. `O=P1(Nc2ccccn2)COc2ccccc2OC1` was tested, and the HER2 level % of control was inactive: 74%. With `Cc1nn(-c2ccccc2)c2c1P(=O)(N1CCOCC1)N(C)C(c1ccccc1)=N2` (stereo not given) the HER2 level % of control was inactive: 123%. For `Cc1ccc(OCC(=O)OC2CN3CCC2CC3)cc1` (stereo not given), the HER2 level % of control was inactive: 136%. `O=P1(Nc2ccc(Br)cn2)COc2ccccc2OC1` was tested, and the HER2 level % of control was inactive: 95.1%. With `O=P1(Nc2ncccn2)COc2ccccc2OC1` the HER2 level % of control was inactive: 85.2%. In the case of `CCOP1(=S)c2c(C)nn(CCC#N)c2N=C(c2ccccc2F)N1C` (stereo not given), the HER2 level % of control is reported as inactive: 96.8%. With `O=P(Nc1nccs1)(c1ccccc1)c1nc2ccccc2s1` (stereo not given) the HER2 level % of control was inactive: 116%. `CCOP1(=S)c2c(C)nn(CCC#N)c2N=C(c2ccc(F)cc2)N1C` (stereo not given) was tested, and the HER2 level % of control was inactive: 128%. In the case of `Cc1cccc(OCC(=O)OC2CN3CCC2CC3)c1` (stereo not given), the HER2 level % of control is reported as inactive: 110%. For `O=C(OC1CN2CCC1CC2)C12CC3CC(CC(C3)C1)C2` (stereo not given), the HER2 level % of control was inactive: 97.5%. `O=C(COc1ccccc1)OC1CN2CCC1CC2` (stereo not given) was tested, and the HER2 level % of control was inactive: 74.8%. With `COP1(=S)c2c(C)nn(CCC#N)c2N=C(c2ccc(F)cc2)N1C` (stereo not given) the HER2 level % of control was inactive: 110%.
